Source: article PMC3203879 (PLoS ONE, 2011)
Each block holds one molecule with its values, some of them ahead of it. Ends that are not written are not given here.

Assays:
[1] = biological target: T1, human plasma derived thrombin (Homo sapiens, UniProt P00734); assay: biochemical; conditions: SD; for IC50: IC50 (nM), thrombin 1.65 nM, S2238 100 µM, 50 mM Tris pH 7.4, 100 mM NaCl, 1 mg/ml BSA, room temperature, n = 3, ± S.D.
[2] = biological target: T1, human plasma derived thrombin

Molecule: CC[C@H](C)[C@H](NC(=O)[C@H](C)NC(=O)[C@H](CCC(=O)O)NC(=O)[C@H](Cc1ccccc1)NC(=O)[C@H](CC(=O)O)NC(=O)[C@H](Cc1ccccc1)NC(=O)[C@@H]1CCCN1C(=O)[C@@H]1CCCN1C(=O)[C@H](C)NC(=O)[C@@H](NC(=O)[C@H](CCCCN)NC(=O)[C@H](Cc1c[nH]cn1)NC(=O)[C@H](CCSC)NC(=O)[C@H](CCCCN)NC(=O)[C@@H]1CCCN1C(=O)[C@H](CCC(=O)O)NC(=O)[C@H](C)NC(=O)[C@@H](NC(=O)[C@@H](N)CC(=O)O)C(C)C)[C@@H](C)O)C(=O)N1CCC[C@H]1C(=O)N[C@@H](CCC(=O)O)C(=O)N[C@@H](CCC(=O)O)C(=O)N[C@@H](Cc1ccc(OP(=O)(O)O)cc1)C(=O)N[C@@H](CC(C)C)C(=O)O [DV24Y^phos]
IC50 ([1]; pre-incubation 0 min): 8.67 ± 0.45 nM | IC50 ([1]; pre-incubation 20 min): 12.4 ± 1.2 nM | Ki [1]: 0.327 ± 0.032 nM

Molecule: CC[C@H](C)[C@H](NC(=O)[C@H](C)NC(=O)[C@H](CCC(=O)O)NC(=O)[C@H](Cc1ccccc1)NC(=O)[C@H](CC(=O)O)NC(=O)[C@H](Cc1ccccc1)NC(=O)[C@@H]1CCCN1C(=O)[C@@H]1CCCN1C(=O)[C@H](C)NC(=O)[C@@H](NC(=O)[C@H](CCCCN)NC(=O)[C@H](Cc1c[nH]cn1)NC(=O)[C@H](CCSC)NC(=O)[C@H](CCCCN)NC(=O)[C@@H]1CCCN1C(=O)[C@H](CCC(=O)O)NC(=O)[C@H](C)NC(=O)[C@@H](NC(=O)[C@@H](N)CC(=O)O)C(C)C)[C@@H](C)O)C(=O)N1CCC[C@H]1C(=O)N[C@@H](CCC(=O)O)C(=O)N[C@@H](CCC(=O)O)C(=O)N[C@@H](Cc1ccc(OS(=O)(=O)O)cc1)C(=O)N[C@@H](CC(C)C)C(=O)O [DV24Y^sulf]
IC50 ([1]; pre-incubation 0 min): 1.66 ± 0.18 nM | IC50 ([1]; pre-incubation 20 min): 2.02 ± 0.29 nM | Ki [1]: 0.056 ± 0.018 nM

Molecule: CC[C@H](C)[C@H](NC(=O)[C@H](C)NC(=O)[C@H](CCC(=O)O)NC(=O)[C@H](Cc1ccccc1)NC(=O)[C@H](CC(=O)O)NC(=O)[C@H](Cc1ccccc1)NC(=O)[C@@H]1CCCN1C(=O)[C@@H]1CCCN1C(=O)[C@H](C)NC(=O)[C@@H](NC(=O)[C@H](CCCCN)NC(=O)[C@H](Cc1c[nH]cn1)NC(=O)[C@@H](N)CCSC)[C@@H](C)O)C(=O)N1CCC[C@H]1C(=O)N[C@@H](CCC(=O)O)C(=O)N[C@@H](CCC(=O)O)C(=O)N[C@@H](Cc1ccc(OS(=O)(=O)O)cc1)C(=O)N[C@@H](CC(C)C)C(=O)O [MH18Y^sulf]
IC50 ([1]; pre-incubation 0 min): 1.26 ± 0.18 nM | IC50 ([1]; pre-incubation 20 min): 1.17 ± 0.14 nM | Ki [1]: 1.25 ± 0.18 nM

Km ([2]; read-out: Michaelis-Menten constant (Km) of S2238 for thrombin, human plasma derived thrombin, 50 mM Tris pH 7.4, 100 mM NaCl, 1 mg/ml BSA, room temperature, 405 nm): 3.32 ± 0.35 µM
Molecule: NC(N)=NCCC[C@H](NC(=O)[C@@H]1CCCCN1C(=O)[C@H](N)Cc1ccccc1)C(=O)Nc1ccc([N+](=O)[O-])cc1 [S2238, H-D-Phe-pipecolyl-Arg-pNA•2HCl, reference compound]

Molecule: DVAEPKMAKTAPPFDFEAIPEEYL [DV24H12A]
IC50 ([1]; pre-incubation 0 min): 48.2 ± 12.4 nM | IC50 ([1]; pre-incubation 20 min): 141 ± 11 nM | Ki [1]: 3.23 ± 0.48 nM

Molecule: MAKTAPPFDFEAIPEEYL [MH18H12A]
maximum inhibition of thrombin ([2]; saturates, highest concentration used 30 µM): ~80% | IC50 ([1]; pre-incubation 0 min): 328 ± 23 nM | IC50 ([1]; pre-incubation 20 min): 343 ± 46 nM | Ki [1]: 329 ± 8 nM
